Source: paper PMC12528898 (The Journal of Biological Chemistry, 2025)
Blank lines part the entries; values can stand above or below the molecule they belong to.

B1: Rab8A WT (full length, nonprenylated), loaded with GTP or GDP (natural protein, human, UniProt P61006 1-207, looked up)
chain: MAKTYDYLFKLLLIGDSGVGKTCVLFRFSEDAFNSTFISTIGIDFKIRTIELDGKRIKLQIWDTAGQERFRTITTAYYRGAMGIMLVYDITNEKSFDNIRNWIRNIEEHASADVEKMILGNKCDVNDKRQVSKERGEKLALDYGIKFMETSAKANINVENAFFTLARDIKAKMDKKLEGNSPQGSNQGVKITPDQQKRSSFFRCVLL
B2: mNeon PPM1H (full-length PPM1H with mNeon inserted into loop 1 at position 125) (enzyme, human, UniProt Q9ULR3 1-514, looked up)
chain: MLTRVKSAVANFMGGIMAGSSGSEHGGGSCGGSDLPLRFPYGRPEFLGLSQDEVECSADHIARPILILKETRRLPWATGYAEVINAGKSTHNEDQASCEVLTVKKKAGAVTSTPNRNSSKRRSSLPNGEGLQLKENSESEGVSCHYWSLFDGHAGSGAAVVASRLLQHHITEQLQDIVDILKNSAVLPPTCLGEEPENTPANSRTLTRAASLRGGVGAPGSPSTPPTRFFTEKKIPHECLVIGALESAFKEMDLQIERERSSYNISGGCTALIVICLLGKLYVANAGDSRAIIIRNGEIIPMSSEFTPETERQRLQYLAFMQPHLLGNEFTHLEFPRRVQRKELGKKMLYRDFNMTGWAYKTIEDEDLKFPLIYGEGKKARVMATIGVTRGLGDHDLKVHDSNIYIKPFLSSAPEVRIYDLSKYDHGSDDVLILATDGLWDVLSNEEVAEAITQFLPNCDPDDPHRYTLAAQDLVMRARGVLKDRGWRISNDRLGSGDDISVYVIPLIHGNKLS
notes: PPM1H phosphatase, human, full length; mNeon inserted into loop 1 (residues 115-133) at position 125; the plasmid is pET15b His SUMO mNeon PPM1H; His-SUMO removed by Ulp1 before gel filtration; also called WT PPM1H; HisSUMO-mNeon PPM1H; not shown: mNeon, internal (loop 1, at position 125), kept

Key:
mNeon Δ37 PPM1H (human) = mNeon Δ37 PPM1H (human) (UniProt Q9ULR3); assay: MST; unlabelled Rab protein (16 serial dilutions) titrated against 100 nM fluorescent mNeon PPM1H variant; 30 min in the dark; Monolith NT.115; three independent measurements with different protein preparations
mNeon L66R PPM1H (human) = mNeon L66R PPM1H (human) (UniProt Q9ULR3); assay: as above
[1] = target: B2; assay: MST; WT Rab8A loaded with Mg-GTP (EDTA exchange), serially diluted against 100 nM mNeon PPM1H; settings: both partners purified
[2] = target: B2; assay: MST; WT Rab8A loaded with Mg-GDP (EDTA exchange), serially diluted against 100 nM mNeon PPM1H; settings: both partners purified
[3] = target: the molecule itself; assay: SEC; gel filtration (Superdex 200) of purified mNeon PPM1H after removal of His-SUMO

Kd (mNeon Δ37 PPM1H (human)): 10500 nM | Kd (mNeon L66R PPM1H (human)): 5200 nM
Molecule: His Rab8A Q67L (full length, nonprenylated, nonphosphorylated) (from UniProt P61006 1-207) (natural protein)

Kd (mNeon L66R PPM1H (human)): 1100 nM
Molecule: Thiophosphorylated His Rab8A Q67L (from UniProt P61006 1-207) (natural protein)

Molecule: B1
Kd [1]: 1000 nM | Kd [2]: 3000 nM

Molecule: B2
stoichiometry N [3]: 2
